Results from patent US20230203059A1, “MACROCYCLIC JAK INHIBITOR AND USES THEREOF” (Biopolar Hongye (Guangdong) Pharmaceutical Co. Ltd., priority 2020, published 2023).

The chains behind the UniProt entries cited, without tags or fusion partners.
UniProt O60674, whole entry: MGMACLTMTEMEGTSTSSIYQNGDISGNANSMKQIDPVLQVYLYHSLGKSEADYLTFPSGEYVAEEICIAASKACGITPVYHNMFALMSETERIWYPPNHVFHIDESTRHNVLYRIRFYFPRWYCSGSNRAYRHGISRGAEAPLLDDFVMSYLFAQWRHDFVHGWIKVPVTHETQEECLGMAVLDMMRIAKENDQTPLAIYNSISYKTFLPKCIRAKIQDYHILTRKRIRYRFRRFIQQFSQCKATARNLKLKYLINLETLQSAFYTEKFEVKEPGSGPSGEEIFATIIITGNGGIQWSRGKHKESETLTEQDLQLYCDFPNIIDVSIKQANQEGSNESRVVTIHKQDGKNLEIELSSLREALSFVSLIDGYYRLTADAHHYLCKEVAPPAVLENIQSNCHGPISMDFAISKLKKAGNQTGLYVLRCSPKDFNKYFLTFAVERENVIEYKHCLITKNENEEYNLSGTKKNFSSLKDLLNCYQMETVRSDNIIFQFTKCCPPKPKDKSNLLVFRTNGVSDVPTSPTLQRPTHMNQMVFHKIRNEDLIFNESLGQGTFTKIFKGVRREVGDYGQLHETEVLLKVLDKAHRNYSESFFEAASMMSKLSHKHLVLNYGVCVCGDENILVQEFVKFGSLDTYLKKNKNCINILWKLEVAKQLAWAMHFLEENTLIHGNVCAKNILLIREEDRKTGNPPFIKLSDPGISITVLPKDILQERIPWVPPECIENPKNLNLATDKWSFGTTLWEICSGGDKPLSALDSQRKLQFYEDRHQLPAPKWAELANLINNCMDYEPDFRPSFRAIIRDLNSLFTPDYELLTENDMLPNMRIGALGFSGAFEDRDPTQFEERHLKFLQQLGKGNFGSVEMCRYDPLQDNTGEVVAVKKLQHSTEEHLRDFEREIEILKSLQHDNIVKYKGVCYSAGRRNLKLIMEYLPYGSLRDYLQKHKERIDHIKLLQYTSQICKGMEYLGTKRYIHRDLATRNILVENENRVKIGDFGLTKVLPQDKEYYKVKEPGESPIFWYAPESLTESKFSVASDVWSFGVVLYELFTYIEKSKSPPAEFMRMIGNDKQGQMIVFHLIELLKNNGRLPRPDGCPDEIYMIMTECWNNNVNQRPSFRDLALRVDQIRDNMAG
UniProt P29597, whole entry: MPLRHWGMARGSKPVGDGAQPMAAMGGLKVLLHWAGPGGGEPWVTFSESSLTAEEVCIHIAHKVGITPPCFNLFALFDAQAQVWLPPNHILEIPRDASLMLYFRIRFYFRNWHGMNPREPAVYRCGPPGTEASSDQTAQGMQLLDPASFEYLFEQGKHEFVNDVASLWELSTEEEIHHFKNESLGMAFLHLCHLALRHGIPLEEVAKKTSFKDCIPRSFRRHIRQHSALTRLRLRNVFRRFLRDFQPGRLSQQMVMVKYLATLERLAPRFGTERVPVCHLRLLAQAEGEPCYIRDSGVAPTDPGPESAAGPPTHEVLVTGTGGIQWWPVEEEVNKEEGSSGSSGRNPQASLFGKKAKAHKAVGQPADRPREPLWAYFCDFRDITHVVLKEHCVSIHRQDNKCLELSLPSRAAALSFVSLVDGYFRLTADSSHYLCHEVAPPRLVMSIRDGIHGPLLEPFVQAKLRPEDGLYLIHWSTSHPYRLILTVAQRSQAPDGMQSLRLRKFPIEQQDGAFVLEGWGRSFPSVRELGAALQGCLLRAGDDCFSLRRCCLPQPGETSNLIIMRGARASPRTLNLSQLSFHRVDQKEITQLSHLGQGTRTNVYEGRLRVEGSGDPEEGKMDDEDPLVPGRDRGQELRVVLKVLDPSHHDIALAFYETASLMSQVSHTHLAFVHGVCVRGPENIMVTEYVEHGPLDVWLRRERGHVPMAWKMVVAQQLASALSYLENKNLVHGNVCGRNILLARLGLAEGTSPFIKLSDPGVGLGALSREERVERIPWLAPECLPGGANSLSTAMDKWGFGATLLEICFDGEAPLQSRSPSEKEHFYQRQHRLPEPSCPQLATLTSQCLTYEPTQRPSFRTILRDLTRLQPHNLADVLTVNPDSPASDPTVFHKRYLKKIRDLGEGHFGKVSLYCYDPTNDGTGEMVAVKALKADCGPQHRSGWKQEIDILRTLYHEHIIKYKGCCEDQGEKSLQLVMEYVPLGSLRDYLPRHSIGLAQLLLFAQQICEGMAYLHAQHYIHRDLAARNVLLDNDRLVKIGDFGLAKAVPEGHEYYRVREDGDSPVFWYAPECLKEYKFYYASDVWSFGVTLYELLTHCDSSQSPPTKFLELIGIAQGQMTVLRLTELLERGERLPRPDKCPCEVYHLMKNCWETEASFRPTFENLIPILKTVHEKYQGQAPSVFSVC

Columns and labels:
JAK2 = JAK2 (Homo sapiens, UniProt O60674); assay: JAK kinase activity, homogeneous time-resolved fluorescence (JAK2 reaction system); conditions: read-out: JAK 2 activity; ATP 2 μM, JAK2 protein 0.01 ng/μL
TYK2 = TYK2 (Homo sapiens, UniProt P29597); assay: JAK kinase activity, homogeneous time-resolved fluorescence (TYK2 reaction system); conditions: read-out: TYK 2 activity; ATP 2 μM, TYK2 protein 0.2 ng/μL

IC50 (JAK2): 1 to 10 µM | IC50 (TYK2): 1 to 10 µM
SMILES: Nc1cc2ccc1-c1ccnc(n1)Nc1ccc(Cl)c(c1)COCCCCNC2=O
